Measurements as given in patent publication EP2150620B1, “Method for preparing C-6 phosphorylated D-aldohexoses and C-6 phosphorylated D-aldohexose derivatives, and new C-6 phosphorylated D-aldohexose derivatives” (Libragen, priority 2007, dated 2008).

Tested on: polyphosphate-glucose phosphotransferase activity
Experiment: C-6 phosphorylation of acceptors with polyphosphate by an enzymatic extract, detected by thin layer chromatography (Examples 1 and 2)
Settings: complete reaction medium, acceptor 150 mM, sodium hexametaphosphate 7.5 mM, 0.26 U/ml, 24 hours at 30°C

SMILES: O=CC[C@@H](O)[C@H](O)[C@H](O)CO [2-deoxy-D-glucose]
- Result (24 hours incubation): formation of the 6-phosphate of the acceptor (analysis conditions A): A new substance is formed exclusively in the complete reaction medium. It is 2-deoxy-D-glucose-6-phosphate. In addition, the use of a commercial preparation (Sigma-Aldrich D8875) confirmed the presence of 2-deoxy-D-glucose-6-phosphate.

SMILES: OC[C@H]1OC[C@H](O)[C@@H](O)[C@@H]1O [1,5-anhydro-D-sorbitol]
- Result (24 hours incubation): formation of the 6-phosphate of the acceptor (analysis conditions A): A new substance is formed exclusively in the complete reaction medium. It is 1,5-anhydro-D-sorbitol-6-phosphate.

SMILES: O=C[C@H](F)[C@@H](O)[C@H](O)[C@H](O)CO [2-deoxy-2-fluoro-D-glucose]
- Result (24 hours incubation): formation of the 6-phosphate of the acceptor (analysis conditions A): A new substance is formed exclusively in the complete reaction medium. It is 2-deoxy-2-fluoro-D-glucose-6-phosphate.

SMILES: O=S(=O)(O)N[C@H]1C(O)O[C@H](CO)[C@@H](O)[C@@H]1O (stereo partly drawn) [D-glucosamine-2-sulfate]
- Result (24 hours incubation): formation of the 6-phosphate of the acceptor (analysis conditions A): A new substance is formed exclusively in the complete reaction medium. It is D-glucosamine-2-sulfate-6-phosphate.

SMILES: O=C[C@@H](O)[C@@H](O)[C@H](O)[C@H](O)CO [D-mannose]
- Result (24 hours incubation): formation of the 6-phosphate of the acceptor (analysis conditions A): A new substance is formed exclusively in the complete reaction medium. It is D-mannose-6-phosphate.
- Result (24 hours incubation): formation of the 6-phosphate of the acceptor (analysis conditions B): A new substance is formed exclusively in the complete reaction medium. It is D-mannose-6-phosphate.

SMILES: OC[C@H]1O[C@@H](S)[C@H](O)[C@@H](O)[C@@H]1O [1-thio-β-D-glucose]
- Result (24 hours incubation): formation of the 6-phosphate of the acceptor (analysis conditions B): A new substance is formed exclusively in the complete reaction medium. It is 1-thio-β-D-glucose-6-phosphate.

SMILES: N[C@H](C=O)[C@@H](O)[C@H](O)[C@H](O)CO [D-mannosamine, 2-amino-2-deoxy-D-mannose]
- Result (24 hours incubation): formation of the 6-phosphate of the acceptor (analysis conditions A): A new substance is formed exclusively in the complete reaction medium. It is D-mannosamine-6-phosphate.

SMILES: CC(=O)N[C@H]1C(O)O[C@H](CO)[C@@H](O)[C@@H]1O (stereo partly drawn) [N-acetyl-D-glucosamine]
- Result (24 hours incubation): formation of the 6-phosphate of the acceptor (analysis conditions A): A new substance is formed exclusively in the complete reaction medium. It is N-acetyl-D-glucosamine-6-phosphate.

SMILES: CO[C@@H]([C@H](O)[C@H](O)CO)[C@@H](O)C=O [3-O-methyl-D-glucose]
- Result (24 hours incubation): formation of the 6-phosphate of the acceptor (analysis conditions A): A new substance is formed exclusively in the complete reaction medium. It is 3-0-methyl-D-glucose-6-phosphate.

SMILES: O=C[C@H](O)[C@H](O)[C@H](O)[C@H](O)CO [D-allose]
- Result (24 hours incubation): formation of the 6-phosphate of the acceptor (analysis conditions B): A new substance is formed exclusively in the complete reaction medium. It is D-allose-6-phosphate.

SMILES: CCS[C@@H]1O[C@H](CO)[C@@H](O)[C@H](O)[C@H]1O [Ethyl 1-thio-β-D-glucoside]
- Result (24 hours incubation): formation of the 6-phosphate of the acceptor (analysis conditions A): A new substance is formed exclusively in the complete reaction medium. It is 1-thio-β-D-ethyl 1-thio-glucose-6-phosphate.

SMILES: O=C[C@H](O)[C@@H](O)[C@H](O)[C@H](S)CO [5-thio-D-glucose]
- Result (24 hours incubation): formation of the 6-phosphate of the acceptor (analysis conditions B): A new substance is formed exclusively in the complete reaction medium. It is 5-thio-D-glucose-6-phosphate.
